“Also recorded” adds a separate entry of the source.
Columns and labels:
FGFR2 = experiment: In vivo expression level of antigen FGFR2 in SNU-16 tumor by Western blotting; parameters: species or system nude mouse; conditions: 3 mg/kg or 30 mg/kg orally; day after administration; compared with untreated control group
SNU-16 cells = experiment: Amount of antigen FGFR2 on cell surface of SNU-16 treated with low-molecular compound (QIFIKIT); format: cell-based, human; conditions: 100 to 1000 nM; compared with untreated or DMSO-treated SNU-16 cells
Description: This operation was repeated twice. […] The data was analyzed using Flowjo (manufactured by Tree Star Inc.).

For COc1cc(CCc2cc(NC(=O)c3ccc(N4C[C@@H](C)N[C@@H](C)C4)cc3)n[nH]2)cc(OC)c1 [AZD4547, N-(5-(3,5-dimethoxyphenethyl)-1H-pyrazol-3-yl)-4-((3S,5R)-3,5-dimethylpiperazin-1-yl)benzamide], the “expression level of the antigen FGFR2 in the SNU16 tumor” value (FGFR2) was “increased” and the “number of the antigen FGFR2 on cell surface” value (SNU-16 cells) was “elevated; also recorded: increased”.
